Assay outcomes from PubChem BioAssay.
SR-BI HDL uptake: mouse SR-BI HDL lipid transfer inhibition; 320,000 compounds, 0.96% hits; ldlA[mSR-BI] CHO cells, DiI-HDL uptake fluorescence, 3 h; AID 488896; inhibition, % at 12.5 µM;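 active means mean replicate inhibition of at least 70% and a set share of replicates each scoring 70 or more; inconclusive means meets just one of the two criteria; inactive means fails both criteria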;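 further: 0% = median of neutral control wells and 100% = median of positive control wells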
GSIS activator: GLuc luminescence reporter in INS-1E cells, primary screen for activators of glucose-dependent secretion of insulin | INS-1E GLuc reporter insulin secretion, 2-3 h | activation, % at 16.6 µM | 370,000 compounds, 0.61% hits;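 active means lowest replicate activation of at least 40%, so every replicate reaches that level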;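 further: 0% = median of neutral control wells and 100% = median of IBMX positive control wells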
Yeast UUG start: modulators of yeast start codon fidelity, primary screen, whole organism, S. cerevisiae, single point, plate reader | AID 602363, 2012 | S. cerevisiae UUG-firefly luciferase reporter, luminescence/redox ratio | activity score, % at 18.7 µM | hit rate 0.13% among 350,000;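 active = replicate mean at a twofold rise or more, about +100% in these data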;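 also: firefly luciferase made from a UUG start codon reports start codon fidelity; reporter light over untreated wells divided by growth signal over untreated wells; some hits fall short of that in this replicate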
SR-BI uptake up: SR-BI HDL lipid transfer activation | CHO ldlA[mSR-BI] cells, DiI-HDL uptake fluorescence, 3 h; 100 = double the neutral-control signal | activation, % at 12.5 µM | 320,000 compounds, 0.096% hits;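 active means mean replicate activation of at least 60% and every replicate at or above 60%; inconclusive means mean or all-replicate condition met, but not both; inactive means mean below 60% and not all replicates reaching 60%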;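 further: 0% = median plate neutral-control signal and 100% = twice that signal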
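Material: SR-BI-overexpressing, LDLR-lacking CHO cells; schedule: compound exposure 3 h, 37 °C; reagent: DiI-labelled HDL at 10 µg/mL final; technique: bottom-read fluorescence, 550/595 nm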
Active calls of the source: *. In the library only some 1.3% were active in any assay of this set; here they are far more common.

`Cc1ccc(-c2cc(C(=O)N/N=C/c3c[nH]c4ccccc34)n[nH]2)o1` gave SR-BI HDL uptake 16, GSIS activator -7 and SR-BI uptake up -16.
CCOc1cc(CNc2ccccc2)cc(Br)c1OCc1ccc(F)cc1 was read as SR-BI HDL uptake 74*, Yeast UUG start -15 and SR-BI uptake up -74.
`CC(=O)N(C)C[C@@H]1Oc2ncc(C#Cc3ccccn3)cc2C(=O)N([C@@H](C)CO)C[C@H]1C` gave GSIS activator 7 and Yeast UUG start 8.
O=C(CSc1ccc(-c2ccco2)nn1)NC1CCCC1 was read as GSIS activator 40*.
Screening COc1ccc(NC(=O)CSc2ccc(-c3ccco3)nn2)cc1OC returned SR-BI HDL uptake 10, GSIS activator 41*, Yeast UUG start 1 and SR-BI uptake up -10.
Screening COc1cccc(NC(=O)CSc2ccc(-c3ccco3)nn2)c1 returned SR-BI HDL uptake 11, GSIS activator -19 and Yeast UUG start -14.
Screening O=C(CSc1ccc(-c2ccco2)nn1)NC1CCCCC1 returned SR-BI HDL uptake 18, GSIS activator 1 and SR-BI uptake up -18.
`CC1(C)C2CCC1(C)C(OC(=O)C[n+]1ccccc1)C2` (stereo unspecified) gave SR-BI HDL uptake -29, GSIS activator 6, Yeast UUG start -8 and SR-BI uptake up 29.
Screening CC1(C)C2CCC1(C)C(OC(=O)C[n+]1ccccc1N)C2 (stereo unspecified) returned SR-BI HDL uptake -20, GSIS activator 41*, Yeast UUG start -7 and SR-BI uptake up 20.
Screening Cc1cccc2sc(NC(=O)c3ccc(Cl)s3)nc12 returned SR-BI HDL uptake 76*, GSIS activator -8, Yeast UUG start -12 and SR-BI uptake up -76.
CCN(CC)S(=O)(=O)c1ccc(-c2nnc(SCc3nnc(-c4ccc(C)cc4)o3)n2CC)cc1 was read as SR-BI HDL uptake 72*, Yeast UUG start -6 and SR-BI uptake up -72.
For COc1ccc(NC(=O)Nc2cccc3c2O[C@H](CN(C)Cc2ccc(C(F)(F)F)cc2)[C@@H](C)CN([C@@H](C)CO)C3=O)cc1 the results were GSIS activator -9 and Yeast UUG start 7.
`COc1ccc(-c2cn[nH]c2-c2ccc(OCc3ccc([N+](=O)[O-])cc3)cc2O)cc1OC` gave GSIS activator 3 and Yeast UUG start -16.
For O=[N+]([O-])c1ccc(COc2ccc(-c3[nH]ncc3-c3ccc(Cl)cc3)c(O)c2)cc1 the results were SR-BI HDL uptake inconclusive, GSIS activator 41*, Yeast UUG start -12 and SR-BI uptake up -71.
For CCOc1ccc(NC(=O)COc2ccc(C(=O)NCCc3ccccc3)cc2)cc1 the results were SR-BI HDL uptake 4, GSIS activator -10, Yeast UUG start -15 and SR-BI uptake up -4.
`CCCCc1ccc(NC(=O)COc2ccc(C(=O)Nc3ccccc3OCC)cc2)cc1` gave SR-BI HDL uptake 62, GSIS activator 71*, Yeast UUG start -14 and SR-BI uptake up -62.
Cc1ccc2nc(NC(=O)CSc3nc(=O)n(CCN(C)C)c4c3CCCC4)sc2c1 was read as SR-BI HDL uptake 21, GSIS activator 376*, Yeast UUG start -2 and SR-BI uptake up -21.
CNc1nc(-c2ccccc2)[n+](-c2ccc(C)cc2)s1 was read as SR-BI HDL uptake 9, GSIS activator 176* and SR-BI uptake up -9.
Screening Cc1oc2nc(SCC(=O)NC3CCCCC3)nc(N)c2c1C returned SR-BI HDL uptake -388, Yeast UUG start -5 and SR-BI uptake up 389*.
Screening Cc1noc(C)c1NC(=O)Nc1ccc2c(c1)C(=O)N([C@H](C)CO)C[C@@H](C)[C@H](CN(C)S(C)(=O)=O)OCCCC[C@@H](C)O2 returned GSIS activator 6 and Yeast UUG start 20.
O=[N+]([O-])c1cc(S(=O)(=O)N2CCCC2)ccc1N/N=C/c1cccs1 was read as SR-BI HDL uptake 2, GSIS activator 48*, Yeast UUG start -5 and SR-BI uptake up -2.
`O=C(C[C@@H]1CC[C@H]2[C@@H](COC[C@@H](O)CN2C(=O)c2ccncc2)O1)NC1Cc2ccccc2C1` gave GSIS activator 20 and Yeast UUG start 10.
O=C(Nc1cccnc1)c1ccc(Cl)c(S(=O)(=O)N2CCCCCC2)c1 was read as SR-BI HDL uptake -9, GSIS activator -6, Yeast UUG start -15 and SR-BI uptake up 9.
Screening CC1CN(S(=O)(=O)c2cc(C(=O)NC(C)c3cccnc3)ccc2Cl)CC(C)O1 (stereo unspecified) returned SR-BI HDL uptake -13, GSIS activator 43*, Yeast UUG start 3 and SR-BI uptake up 13.
C[C@@H]1CN([C@H](C)CO)C(=O)c2ccccc2-c2ccccc2CO[C@@H]1CN(C)Cc1ccc(-c2ccccc2)cc1 was read as GSIS activator -26.
Screening CCC(C(=O)NC1C(=O)N2C(C(=O)O)=C(CSc3nnc(C)s3)CSC12)c1ccccc1 (stereo unspecified) returned SR-BI HDL uptake -74, GSIS activator 3, Yeast UUG start -11 and SR-BI uptake up 74*.
Screening Cc1nnc(SCC2=C(C(=O)O)N3C(=O)C(NC(=O)COc4ccccc4)C3SC2)s1 (stereo unspecified) returned SR-BI HDL uptake -8, GSIS activator -2, Yeast UUG start -21 and SR-BI uptake up 8.
For O=C(Oc1ccc(/C=N/NC(=O)c2ccccn2)cc1)c1cccc(Br)c1 the results were SR-BI HDL uptake 8, GSIS activator 44*, Yeast UUG start 1 and SR-BI uptake up -8.
CNC(=O)CSc1nc2cccnc2n1-c1ccc(F)cc1 was read as SR-BI HDL uptake -7, GSIS activator 78*, Yeast UUG start -16 and SR-BI uptake up 7.
`CNC(=O)CSc1nc2cccnc2n1C1CCCCC1` gave SR-BI HDL uptake -12, GSIS activator 26, Yeast UUG start -23 and SR-BI uptake up 12.
For CCS(=O)(=O)N1CC2(CN(Cc3cccnc3)[C@H](CO)c3c2c2ccc(OC)cc2n3C)C1 the results were GSIS activator 9.
`COc1ccc(-n2cc(-c3ccccc3)c3c(N4CC(C)OC(C)C4)ncnc32)cc1` (stereo unspecified) gave SR-BI HDL uptake 76*, GSIS activator -31 and SR-BI uptake up -76.
CCOc1ccc(-n2cc(-c3ccccc3)c3c(N4CCOCC4)ncnc32)cc1 was read as SR-BI HDL uptake 82*, GSIS activator -3, Yeast UUG start -3 and SR-BI uptake up -82.
`CN1CCN(c2ncnc3c2c(-c2ccccc2)cn3-c2ccc(F)cc2)CC1` gave SR-BI HDL uptake 9, GSIS activator -18 and SR-BI uptake up -9.
c1ccc(-c2cn(-c3ccccc3)c3ncnc(N4CCCCC4)c23)cc1 was read as SR-BI HDL uptake 17, GSIS activator -3 and SR-BI uptake up -17.
COc1ccc2c3c(n(C)c2c1)[C@@H](CO)N(C(C)=O)CC31CN(C(=O)NC(C)C)C1 was read as GSIS activator 22.

Reprinted from the entries so far for reference:
CCOc1ccc(-n2cc(-c3ccccc3)c3c(N4CCOCC4)ncnc32)cc1 was read as SR-BI HDL uptake 82*, GSIS activator -3, Yeast UUG start -3 and SR-BI uptake up -82.
`CN1CCN(c2ncnc3c2c(-c2ccccc2)cn3-c2ccc(F)cc2)CC1` gave SR-BI HDL uptake 9, GSIS activator -18 and SR-BI uptake up -9.
c1ccc(-c2cn(-c3ccccc3)c3ncnc(N4CCCCC4)c23)cc1 was read as SR-BI HDL uptake 17, GSIS activator -3 and SR-BI uptake up -17.
COc1ccc2c3c(n(C)c2c1)[C@@H](CO)N(C(C)=O)CC31CN(C(=O)NC(C)C)C1 was read as GSIS activator 22.
